Like-named read-outs stand apart in the source and are kept apart here. Some results are limits rather than exact numbers.

Amino acid sequences for entries named in this document (tags omitted). A change or cut given only in a name is not applied to a line headed by its entry.
UniProt P41145: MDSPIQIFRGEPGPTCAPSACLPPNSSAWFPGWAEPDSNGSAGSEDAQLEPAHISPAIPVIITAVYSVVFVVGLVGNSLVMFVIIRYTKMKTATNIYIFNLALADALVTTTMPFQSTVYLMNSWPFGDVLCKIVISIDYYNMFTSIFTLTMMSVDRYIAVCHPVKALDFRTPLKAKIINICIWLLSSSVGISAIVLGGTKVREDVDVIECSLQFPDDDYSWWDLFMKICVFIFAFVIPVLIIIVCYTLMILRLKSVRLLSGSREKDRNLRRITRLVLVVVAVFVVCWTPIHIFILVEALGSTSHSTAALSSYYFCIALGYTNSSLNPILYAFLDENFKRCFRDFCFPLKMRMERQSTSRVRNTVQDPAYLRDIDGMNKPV
UniProt P41146: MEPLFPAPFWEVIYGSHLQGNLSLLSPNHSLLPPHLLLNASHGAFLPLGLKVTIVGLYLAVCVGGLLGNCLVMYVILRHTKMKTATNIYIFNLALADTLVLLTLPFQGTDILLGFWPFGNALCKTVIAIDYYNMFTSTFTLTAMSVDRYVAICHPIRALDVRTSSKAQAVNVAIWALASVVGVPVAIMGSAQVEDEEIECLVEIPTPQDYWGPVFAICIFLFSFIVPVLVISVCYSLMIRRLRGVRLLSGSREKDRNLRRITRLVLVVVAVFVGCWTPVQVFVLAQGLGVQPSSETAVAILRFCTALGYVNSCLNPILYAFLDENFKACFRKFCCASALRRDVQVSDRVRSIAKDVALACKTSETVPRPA
UniProt P35372, whole entry, looked up: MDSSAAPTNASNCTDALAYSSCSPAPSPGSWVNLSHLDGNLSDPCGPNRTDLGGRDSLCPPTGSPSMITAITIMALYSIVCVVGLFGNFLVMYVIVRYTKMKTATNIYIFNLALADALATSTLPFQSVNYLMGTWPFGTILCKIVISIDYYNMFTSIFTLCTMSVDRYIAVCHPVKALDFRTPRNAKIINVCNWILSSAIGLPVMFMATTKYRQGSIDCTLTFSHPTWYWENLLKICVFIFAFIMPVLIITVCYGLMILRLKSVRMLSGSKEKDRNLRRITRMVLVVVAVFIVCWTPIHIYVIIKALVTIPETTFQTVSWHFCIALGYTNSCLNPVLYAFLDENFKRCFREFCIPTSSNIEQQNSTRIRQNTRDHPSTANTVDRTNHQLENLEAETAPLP

The target of one assay is kappa opioid receptor (Homo sapiens, UniProt P41145). The assay is described as follows: Radioligand binding assay, [3H]U69593, membranes of CHO cells transfected with human kappa opioid receptor.
Assay [1] addresses nociceptin (NOP) receptor (Homo sapiens, UniProt P41146). As to the kind of experiment: Radioligand binding assay, [3H]N/OFQ, membranes of CHO cells transfected with human NOP receptor.
The target of another assay is mu opioid receptor (Homo sapiens, UniProt P35372). The assay is described as follows: Radioligand binding assay, [3H]DAMGO, membranes of CHO cells transfected with human mu opioid receptor.
Setting [2] is: read-out: Receptor Binding Ki (nM) κ, Compounds of Formula (IV), CHO cell membranes.
Where [3] appears, read: read-out: Receptor Binding Ki (nM) NOP, Compounds of Formula (IV), CHO cell membranes.
Where [4] appears, read: read-out: Receptor Binding Ki (nM) μ, Compounds of Formula (IV), CHO cell membranes.

In the case of `CC(C)C1CCC(N2CCC3(CC2)C(=O)N(CCNC(=O)[C@H](N)CCCNC(=N)N)Cc2ccccc23)CC1` (stereo partly drawn), the inhibition constant Ki on kappa opioid receptor (setting [2]) is 15 to 150 nM; in assay [1] (setting [3]) it was below 15 nM; at mu opioid receptor (setting [4]), 15 to 150 nM.

Regarding `CC(C)[C@H]1CC[C@@H](N2CCC3(CC2)C(=O)N(CC(N)=O)Cc2cc(-c4ccccc4)ccc23)CC1`, the Ki in assay [1] (setting [3]) is above 5000 nM.

As for `CC(C)[C@H]1CC[C@@H](N2CCC3(CC2)C(=O)N(CC(N)=O)Cc2ccccc23)CC1`, the Ki is 150 to 5000 nM on kappa opioid receptor (setting [2]), 15 to 150 nM in assay [1] (setting [3]) and 150 to 5000 nM on mu opioid receptor (setting [4]).

Take `CC(C)[C@H]1CC[C@@H](N2CCC3(CC2)C(=O)N(CCC(=O)OC(C)(C)C)Cc2ccccc23)CC1`: the Ki lay within 150 to 5000 nM at kappa opioid receptor (setting [2]), 15 to 150 nM in assay [1] (setting [3]) and 15 to 150 nM on mu opioid receptor (setting [4]).

For the compound `CC(C)[C@H]1CC[C@@H](N2CCC3(CC2)C(=O)N(CCNS(N)(=O)=O)Cc2ccccc23)CC1`, the Ki at kappa opioid receptor (setting [2]) is 15 to 150 nM; in assay [1] (setting [3]) it was below 15 nM; on mu opioid receptor (setting [4]) it was below 15 nM.

Turning to `CN1Cc2ccccc2C2(CCN([C@H]3CC[C@@H](C4CCCCC4)CC3)CC2)C1=O`, the Ki at kappa opioid receptor (setting [2]) lay within 150 to 5000 nM; in assay [1] (setting [3]), 15 to 150 nM; on mu opioid receptor (setting [4]), 150 to 5000 nM.

On to `O=C1NCc2ccccc2C12CCN([C@H]1CC[C@@H](C3CCCCC3)CC1)CC2`, for which the Ki at kappa opioid receptor (setting [2]) was 150 to 5000 nM; in assay [1] (setting [3]) it was 150 to 5000 nM; at mu opioid receptor (setting [4]), 15 to 150 nM.

On to `CC(=O)OCCN1Cc2ccccc2C2(CCN([C@H]3CC[C@@H](C(C)C)CC3)CC2)C1=O` (relative stereo), for which the inhibitory constant (Ki) at kappa opioid receptor (setting [2]) was in the range of 150 to 5000 nM; in assay [1] (setting [3]), 15 to 150 nM; on mu opioid receptor (setting [4]), 15 to 150 nM.

Take `CC(C)OC(=O)CN1Cc2ccccc2C2(CCN([C@H]3CC[C@@H](C(C)C)CC3)CC2)C1=O` (relative stereo): the Ki at kappa opioid receptor (setting [2]) was in the range of 150 to 5000 nM; in assay [1] (setting [3]) it was 15 to 150 nM; on mu opioid receptor (setting [4]) it was 150 to 5000 nM.

Consider `CC(C)[C@H]1CC[C@@H](N2CCC3(CC2)C(=O)N(CC#N)Cc2ccccc23)CC1` (relative stereo), for which the Ki was 150 to 5000 nM at kappa opioid receptor (setting [2]), below 15 nM in assay [1] (setting [3]) and 15 to 150 nM at mu opioid receptor (setting [4]).

As to `CC(C)[C@H]1CC[C@@H](N2CCC3(CC2)C(=O)N(CC(=O)O)Cc2ccccc23)CC1` (relative stereo), the Ki (at kappa opioid receptor (setting [2]); in assay [1] (setting [3]); at mu opioid receptor (setting [4])) was 150 to 5000 nM in each case.

Regarding `CC(C)[C@H]1CC[C@@H](N2CCC3(CC2)C(=O)N(CCN)Cc2cc(-c4ccccc4)ccc23)CC1` (relative stereo), the inhibition constant (Ki) (on kappa opioid receptor (setting [2]); in assay [1] (setting [3]); at mu opioid receptor (setting [4])) was 150 to 5000 nM in each case.

`CC(C)[C@H]1CC[C@@H](N2CCC3(CC2)C(=O)N(CCN)Cc2cc(Br)ccc23)CC1` (relative stereo): the Ki was below 15 nM in assay [1] (setting [3]) and 15 to 150 nM at mu opioid receptor (setting [4]).

Regarding `CC(C)[C@H]1CC[C@@H](N2CCC3(CC2)C(=O)N(CCN)Cc2ccccc23)CC1` (relative stereo), the Ki at kappa opioid receptor (setting [2]) is 150 to 5000 nM; in assay [1] (setting [3]), below 15 nM; at mu opioid receptor (setting [4]), 15 to 150 nM.

`CC(C)[C@H]1CC[C@@H](N2CCC3(CC2)C(=O)N(CCNC(=N)N)Cc2ccccc23)CC1` (relative stereo): the Ki is 15 to 150 nM on kappa opioid receptor (setting [2]), below 15 nM in assay [1] (setting [3]) and 15 to 150 nM at mu opioid receptor (setting [4]).

In the case of `CC(C)[C@H]1CC[C@@H](N2CCC3(CC2)C(=O)N(CCNC(N)=O)Cc2ccccc23)CC1` (relative stereo), the Ki at kappa opioid receptor (setting [2]) was in the range of 150 to 5000 nM; in assay [1] (setting [3]), 15 to 150 nM; on mu opioid receptor (setting [4]), 150 to 5000 nM.

For `CC(C)[C@H]1CC[C@@H](N2CCC3(CC2)C(=O)N(CCNC(N)=S)Cc2ccccc23)CC1` (relative stereo), the Ki at kappa opioid receptor (setting [2]) is 15 to 150 nM; in assay [1] (setting [3]) it was below 15 nM; at mu opioid receptor (setting [4]), 15 to 150 nM.

In the case of `CC(C)[C@H]1CC[C@@H](N2CCC3(CC2)C(=O)N(CCNC=O)Cc2ccccc23)CC1` (relative stereo), the inhibition constant Ki (at kappa opioid receptor (setting [2]); in assay [1] (setting [3]); on mu opioid receptor (setting [4])) was 15 to 150 nM each time.

With `CC(C)[C@H]1CC[C@@H](N2CCC3(CC2)C(=O)N(CCNS(C)(=O)=O)Cc2ccccc23)CC1` (relative stereo), the inhibition constant Ki on kappa opioid receptor (setting [2]) is 150 to 5000 nM; in assay [1] (setting [3]) it was below 15 nM; at mu opioid receptor (setting [4]) it was 15 to 150 nM.

On to `CC(C)[C@H]1CC[C@@H](N2CCC3(CC2)C(=O)N(CCO)Cc2ccccc23)CC1` (relative stereo), for which the results for the Ki (at kappa opioid receptor (setting [2]); in assay [1] (setting [3]); on mu opioid receptor (setting [4])) were 15 to 150 nM, below 15 nM and 15 to 150 nM, respectively.

`CC(C)[C@H]1CC[C@@H](N2CCC3(CC2)C(=O)N(CCOCc2ccccc2)Cc2ccccc23)CC1` (relative stereo): the Ki was 15 to 150 nM on kappa opioid receptor (setting [2]), below 15 nM in assay [1] (setting [3]) and 15 to 150 nM at mu opioid receptor (setting [4]).

For `CC(C)[C@H]1CC[C@@H](N2CCC3(CC2)C(=O)NCc2cc(Br)ccc23)CC1` (relative stereo), the Ki on kappa opioid receptor (setting [2]) lay in the range of 150 to 5000 nM; in assay [1] (setting [3]), 15 to 150 nM; on mu opioid receptor (setting [4]), 15 to 150 nM.

In the case of `COC(=O)CN1Cc2ccccc2C2(CCN([C@H]3CC[C@@H](C(C)C)CC3)CC2)C1=O` (relative stereo), the Ki on kappa opioid receptor (setting [2]) is 150 to 5000 nM; in assay [1] (setting [3]), 15 to 150 nM; at mu opioid receptor (setting [4]), 150 to 5000 nM.

Turning to `COCCN1Cc2ccccc2C2(CCN([C@H]3CC[C@@H](C(C)C)CC3)CC2)C1=O` (relative stereo), the Ki lay in the range of 150 to 5000 nM at kappa opioid receptor (setting [2]), 15 to 150 nM in assay [1] (setting [3]) and 150 to 5000 nM at mu opioid receptor (setting [4]).

`Cc1ccc2c(c1)CNC(=O)C21CCN([C@H]2CC[C@@H](C(C)C)CC2)CC1` (relative stereo): the Ki is 150 to 5000 nM on kappa opioid receptor (setting [2]), 15 to 150 nM in assay [1] (setting [3]) and 150 to 5000 nM at mu opioid receptor (setting [4]).

In the case of “N-(2-(1′- (4,4-dimethyl- cyclohexyl)-3- oxo-1H-spiro [isoquinoline- 4,4′-piperidin]- 2(3H)-yl) ethyl)amino- sulfonamide”, the Ki at kappa opioid receptor (setting [2]) was in the range of 150 to 5000 nM; in assay [1] (setting [3]), 15 to 150 nM; on mu opioid receptor (setting [4]), 15 to 150 nM.

Regarding “N-(((1-(1-(cis-4- isopropylcyclohexyl) piperidin-4-yl)-1H- indol-3- yl)methyl) carbamothioyl) benzamide”, the Ki is above 5000 nM on kappa opioid receptor (read-out: Receptor Binding Ki (nM) κ, Compounds of Formula (II), CHO cell membranes); 150 to 5000 nM in assay [1] (read-out: Receptor Binding Ki (nM) NOP, Compounds of Formula (II), CHO cell membranes); 150 to 5000 nM at mu opioid receptor (read-out: Receptor Binding Ki (nM) μ, Compounds of Formula (II), CHO cell membranes).

The record behind these values is patent USRE49825E1, “Piperidinyl nociceptin receptor compounds” (Astraea Therapeutics, LLC, priority 2015, dated 2024).
